Measured values published in PubChem BioAssay (NCATS).
The list shows a part of the results, in another mix than the full data. Results filed as inconclusive are left out. Calls of active or inactive are those of the source. Unless noted, the call rests on the fitted dose curve; in most records, active means well fitted cell-killing curve with a large enough effect; inconclusive means small, poorly fitted or top-dose-only effect, or effect the other way; inactive means no such curve, though single readings can be large or run the other way.

How the values were obtained:
[1] = Quantitative High-Throughput drug screen in 47 multiple myeloma cell lines against the NCATS MIPE library collection: OCIMY1_PLB cell viability assay (AID 1918979); conditions: OCI-MY1 myeloma viability, CellTiter-Glo ATP, 48 h; at 45.8 µM (top of the series); further: nearly all actives have a fitted effect of over 35% in size
Procedure, shortened: (§1)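 ATP-based CellTiter-Glo luminescence after 48 h drug exposure (37 °C, 5% CO2) of 500 myeloma cells per well. DMSO-only wells set 100% viability, media-only wells 0%; MIPE 4.0 library added by pin tool.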

[2] = Quantitative High-Throughput drug screen in 47 multiple myeloma cell lines against the NCATS MIPE library collection: MM1R_ATCC cell viability assay (AID 1918981); conditions: MM1R multiple myeloma cells, CellTiter-Glo viability, 48 h; further: potency means the concentration at half of the fitted maximal effect; nearly all actives have a fitted effect of over 35% in size
Procedure, shortened: as §1

[3] = Quantitative High-Throughput drug screen in 47 multiple myeloma cell lines against the NCATS MIPE library collection: LP1_DSMZ cell viability assay (AID 1918982); conditions: LP1 myeloma viability, CellTiter-Glo ATP luminescence, 48 h; at 45.8 µM (top of the series); further: nearly all actives have a fitted effect of over 35% in size
From the text: (§2) PI: Beverly A. Mock Ph.D.
(§3) Laboratory of Cancer Biology and Genetics,
(§4) Center for Cancer Research, National Cancer Institute,
(§5) National Institute of Health, Bethesda, Maryland
(§6) Drug resistance and disease progression are common in multiple myeloma (MM) patients, underscoring the need for new therapeutic combinations. […] We hypothesized that effective combinations would reduce MYC expression and enhance p16 activity. […] These preclinical data identify potentially useful drug combinations for evaluation in drug-resistant MM and reveal potential mechanisms of combined drug sensitivity.
(§7) Described herein is the primary MIPE qHTS used to cherrypick compounds. Validated compounds were then further tested for potential synergistic activiy.
[1] […]
(§8) 5; Detector; 425V; Luminescence; Viewlux PerkinElmer. […]
(§9) 1. […] Briefly, the corresponding myeloma cell lines were screened in 1,536-well plates with 500 cells, 5-uL per well for inhibition of cell viability (assessed by measuring ATP levels with CellTiterGlo). […]
(§10) 5. Signal was measured as median relative luminescence units on a ViewLux (PerkinElmer) multiplate reader. […]

[4] = Quantitative High-Throughput drug screen in 47 multiple myeloma cell lines against the NCATS MIPE library collection: L363_DSMZ cell viability assay (AID 1918984); conditions: L363 myeloma viability, CellTiter-Glo ATP luminescence, 48 h; at 45.8 µM (top of the series); further: nearly all actives have a fitted effect of over 40% in size
Procedure, shortened: as §1

[5] = Quantitative High-Throughput drug screen in 47 multiple myeloma cell lines against the NCATS MIPE library collection: OCIMY7_PLB cell viability assay (AID 1918987); conditions: OCI-MY7 myeloma viability, CellTiter-Glo ATP, 48 h; further: potency means the concentration at half of the fitted maximal effect; nearly all actives have a fitted effect of over 65% in size
Procedure, shortened: as §1

[6] = Quantitative High-Throughput drug screen in 47 multiple myeloma cell lines against the NCATS MIPE library collection: OCIMY5_PLB cell viability assay (AID 1918988); conditions: OCI-MY5 myeloma viability, ATP luminescence, 48 h; further: potency means the concentration at half of the fitted maximal effect; nearly all actives have a fitted effect of over 65% in size
From the text: as §2, §3, §4, §5, §6, §7
[1] […]
as §8, §9, §10

[7] = Quantitative High-Throughput drug screen in 47 multiple myeloma cell lines against the NCATS MIPE library collection: VP6_DJ cell viability assay (AID 1919867); conditions: ATP luminescence, 48 h; further: potency means the concentration at half of the fitted maximal effect; nearly all actives have a fitted effect of over 40% in size
Procedure, shortened: as §1

[8] = Quantitative High-Throughput drug screen in 47 multiple myeloma cell lines against the NCATS MIPE library collection: PE2_PLB cell viability assay (AID 1919869); conditions: PE2_PLB myeloma cells viability, ATP luminescence, 48 h; further: potency means the concentration at half of the fitted maximal effect; nearly all actives have a fitted effect of over 35% in size
From the text: as §2, §3, §4, §5, §6, §7
[1] […]
as §8, §9, §10

[9] = qHTS drug screen for cell cycle checkpoint inhibitors in PARPi-resistant BRCA-mutant ovarian cancer cell lines. (AID 1963452; calls by dose curve); conditions: PEO1/OlaR viability, CellTiter-Glo luminescence, 96 h; hits give low values
From the text: Women's Malignancies Branch, Center for Cancer Research (CCR),
National Cancer Institute (NCI), National Institutes of Health (NIH), Bethesda, MD
Poly (ADP-ribose) polymerase inhibitors (PARPis) have changed the treatment paradigm in breast cancer gene (BRCA) - mutant high-grade serous ovarian carcinoma (HGSC). However, most patients eventually develop resistance to PARPis, highlighting an unmet need for improved therapeutic strategies. Using high-throughput drug screens, we identified ataxia telangiectasia and rad3-related protein/checkpoint kinase 1 (CHK1) pathway inhibitors as cytotoxic and further validated the activity of the CHK1 inhibitor (CHK1i) prexasertib in PARPi-sensitive and -resistant BRCA-mutant HGSC cells and xenograft mouse models. CHK1i monotherapy induced DNA damage, apoptosis, and tumor size reduction. We then conducted a phase 2 study (NCT02203513) of prexasertib in patients with BRCA-mutant HGSC. The treatment was well tolerated but yielded an objective response rate of 6% (1 of 17; one partial response) in patients with previous PARPi treatment. […] BRCA reversion mutation in previously PARPi-treated BRCA-mutant patients was not associated with resistance to CHK1i. […]
6; Detection; Luminescence, PHERAstar (BMG Labtech) plate reader. […]
6. Luminescence readings were taken using PHERAstar (BMG Labtech). […]

CN(CCCl)CCCl
inactive: viability [1] 118% | viability (% of control) [3] 122% | viability (% of control) [4] 102% | Z-AUC [9] 0.0825
active: Potency [2] 13.2 µM | Potency [5] 5.9 µM | Potency [6] 23.5 µM | Potency [7] 9.35 µM | Potency [8] 11.8 µM
